Assay results: patent US20150030697, “Treatments for gastrointestinal disorders” (published 2015)

Legend:
Peptide 1 = target: T1, Peptide 1
T1 chain: CCSLCCNPACTGCY

Peptide 2 = target: T2, Peptide 2
T2 chain: CCSLCCNPACTGC

Peptide 3 = target: T3, Peptide 3
T3 chain: CCELCCNPACTGCY

B1: Calf intestinal alkaline phosphatase (CIP) (protein)
chain: LVPVEEEDPAFWNRQAAQALDVAKKLQPIQTAAKNVILFLGDGMGVPTVTATRILKGQMNGKLGPETPLAMDQFPYVALSKTYNVDRQVPDSAGTATAYLCGVKGNYRTIGVSAAARYNQCKTTRGNEVTSVMNRAKKAGKSVGVVTTTRVQHASPAGAYAHTVNRNWYSDADLPADAQMNGCQDIAAQLVNNMDIDVILGGGRKYMFPVGTPDPEYPDDASVNGVRKRKQNLVQAWQAKHQGAQYVWNRTALLQAADDSSVTHLMGLFEPADMKYNVQQDHTKDPTLQEMTEVALRVVSRNPRGFYLFVEGGRIDHGHHDDKAYMALTEAGMFDNAIAKANELTSELDTLILVTADHSHVFSFGGYTLRGTSIFGLAPSKALDSKSYTSILYGNGPGYALGGGSRPDVNDSTSEDPSYQQQAAVPQASETHGGEDVAVFARGPQAHLVHGVEEETFVAHIMAFAGCVEPYTDCNLPAPTTATSIPD
Peptide 1 Dephospho (%), LC-MS after phosphatase treatment, pH 8 (Peptide 1): 100% | Peptide 2 Dephospho (%), LC-MS after phosphatase treatment, pH 8 (Peptide 2): 100% | Peptide 2 Remaining (%), LC-MS after phosphatase treatment, pH 8 (Peptide 2): 0% | LC-MS after treatment with and without calf intestinal alkaline phosphatase (Peptide 3): Peptide 3 was not affected by CIP treatment (data not shown)

B2: Human prostate acid phosphatase (HuPrAP) (protein)
chain: KELKFVTLVFRHGDRSPIDTFPTDPIKESSWPQGFGQLTQLGMEQHYELGEYIRKRYRKFLNESYKHEQVYIRSTDVDRTLMSAMTNLAALFPPEGVSIWNPILLWQPIPVHTVPLSEDQLLYLPFRNCPRFQELESETLKSEEFQKRLHPYKDFIATLGKLSGLHGQDLFGIWSKVYDPLYCESVHNFTLPSWATEDTMTKLRELSELSLLSLYGIHKQKEKSRLQGGVLVNEILNHMKRATQIPSYKKLIMYSAHDTTVSGLQMALDVYNGLLPPYASCHLTELYFEKGEYFVEMYYRNETQHEPYPLMLPGCSPSCPLERFAELVGPVIPQDWSTECMTTNSHQGTEDSTD
Peptide 1 Dephospho (%), LC-MS after phosphatase treatment, pH 5 (Peptide 1): 6.2% | Peptide 1 Remaining (%), LC-MS after phosphatase treatment, pH 5 (Peptide 1): 93.8% | Peptide 2 Dephospho (%), LC-MS after phosphatase treatment, pH 5 (Peptide 2): 4.1% | Peptide 2 Remaining (%), LC-MS after phosphatase treatment, pH 5 (Peptide 2): 95.9%
